Marks after values point to notes of the source that are not given here.
Assay: Non-fasting serum glucose and insulin in KK-Ay diabetic mice
Type: in vivo, mouse
Conditions: 1.0 mg/kg-day by gavage, once daily for three days

Question: What does the source list for `CN(CCOc1ccc(CC2SC(=O)NC2=O)cc1)c1ccccn1` (centres unmarked) [rosiglitazone]?
Answer: Insulin (non-fasting serum) (control 93.3 (critical value 85.4)): 88.7 % Pretreatment; Glucose (non-fasting serum) (control 102.6 (critical value 98.7)): 80.3# % Pretreatment
